Common to all, as to type: cell-based
In assay [1] the test system is MCF7. The experiment in a line: Inhibition of KDM5 human MCF7 cells assessed as up-regulation of MT1F mRNA expression at 1 uM after 48 hrs by RT-qPCR assay. On the technique in general: Quantitative PCR measures a nucleic acid by following its amplification.
The test system of assay [2] is MCF7. The experiment in a line: Inhibition of KDM5 human MCF7 cells assessed as up-regulation of MT1H mRNA expression at 1 uM after 48 hrs by RT-qPCR assay.
Assay [3] deals with T1, Lysine-specific demethylase 5A (Homo sapiens, UniProt P29375). The experiment in a line: Inhibition of KDM5A in human MCF7 cells assessed as increase in H3K4me3 levels at 1 uM after 30 hrs by Western blot analysis relative to control. In general terms: In western blotting, separated proteins are transferred to a membrane and probed.
Assay [4] deals with MCF7. The assay is described as follows: Inhibition of KDM5 in human MCF7 cells assessed as up-regulation of STING protein expression at 1 uM after 48 hrs by Western blot analysis relative to control.
In assay [5] the test system is MCF7. The assay is described as follows: Inhibition of KDM5 human MCF7 cells assessed as up-regulation of STING mRNA expression at 1 uM after 48 hrs by RT-qPCR assay relative to control.
The target of assay [6] is T1, Lysine-specific demethylase 5A. The experiment in a line: Inhibition of KDM5A in human MCF7 cells assessed as increase in H3K4me3 levels at 1 uM after 48 hrs by Western blot analysis relative to control.

Sequences of proteins named here, by UniProt entry; tags and fusion partners are left off. A change or cut given only in a name is not applied to a line headed by its entry.
UniProt P29375: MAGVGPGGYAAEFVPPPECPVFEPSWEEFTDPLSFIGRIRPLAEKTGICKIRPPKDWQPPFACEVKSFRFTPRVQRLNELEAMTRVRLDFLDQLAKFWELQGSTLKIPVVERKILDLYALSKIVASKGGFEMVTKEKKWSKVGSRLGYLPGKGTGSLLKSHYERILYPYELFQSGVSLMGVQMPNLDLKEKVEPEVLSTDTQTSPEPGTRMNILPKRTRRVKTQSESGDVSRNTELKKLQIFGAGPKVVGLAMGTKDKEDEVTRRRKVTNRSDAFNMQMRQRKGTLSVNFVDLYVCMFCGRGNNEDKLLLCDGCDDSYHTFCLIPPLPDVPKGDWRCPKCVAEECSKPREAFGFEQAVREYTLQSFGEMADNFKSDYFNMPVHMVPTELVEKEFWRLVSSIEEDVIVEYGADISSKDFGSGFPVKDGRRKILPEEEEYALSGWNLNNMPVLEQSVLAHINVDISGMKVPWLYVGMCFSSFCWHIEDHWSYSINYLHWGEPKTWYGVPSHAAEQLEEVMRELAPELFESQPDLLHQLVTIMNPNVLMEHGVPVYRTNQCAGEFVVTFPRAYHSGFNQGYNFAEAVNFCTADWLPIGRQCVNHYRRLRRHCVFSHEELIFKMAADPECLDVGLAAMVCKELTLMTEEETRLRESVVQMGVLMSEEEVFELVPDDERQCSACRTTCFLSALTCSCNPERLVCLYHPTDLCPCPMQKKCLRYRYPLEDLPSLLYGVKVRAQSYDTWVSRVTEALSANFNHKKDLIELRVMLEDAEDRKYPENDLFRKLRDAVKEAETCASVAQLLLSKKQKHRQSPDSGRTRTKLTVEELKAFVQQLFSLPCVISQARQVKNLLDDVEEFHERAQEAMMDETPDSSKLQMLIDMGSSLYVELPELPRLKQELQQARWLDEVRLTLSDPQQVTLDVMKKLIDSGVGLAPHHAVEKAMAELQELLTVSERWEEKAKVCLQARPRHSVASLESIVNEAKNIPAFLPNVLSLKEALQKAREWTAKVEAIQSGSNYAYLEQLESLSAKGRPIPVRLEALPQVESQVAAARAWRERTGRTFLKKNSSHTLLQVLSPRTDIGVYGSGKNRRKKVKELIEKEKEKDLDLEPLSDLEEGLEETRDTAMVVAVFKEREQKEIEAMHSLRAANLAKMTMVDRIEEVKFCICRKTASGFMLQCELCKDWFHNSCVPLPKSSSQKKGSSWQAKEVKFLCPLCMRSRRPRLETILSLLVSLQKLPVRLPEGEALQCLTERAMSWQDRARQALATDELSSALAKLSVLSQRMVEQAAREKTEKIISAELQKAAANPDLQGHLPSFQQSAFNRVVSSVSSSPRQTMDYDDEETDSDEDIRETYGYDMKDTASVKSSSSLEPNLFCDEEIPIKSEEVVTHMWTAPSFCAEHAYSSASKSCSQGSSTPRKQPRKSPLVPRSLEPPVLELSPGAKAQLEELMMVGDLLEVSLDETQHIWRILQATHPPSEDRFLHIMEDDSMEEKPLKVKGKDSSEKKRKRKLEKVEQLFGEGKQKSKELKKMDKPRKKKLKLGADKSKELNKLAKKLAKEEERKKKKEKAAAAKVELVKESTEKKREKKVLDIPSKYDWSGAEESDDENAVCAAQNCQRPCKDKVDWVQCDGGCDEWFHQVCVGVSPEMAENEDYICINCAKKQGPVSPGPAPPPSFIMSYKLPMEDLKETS

Molecules are shown by their SMILES. Some results are limits rather than exact numbers.

Turning to `CCOC(=O)c1ccnc(CNCC(=O)N(CC)CCN(C)C)c1`, the fold change (FC) was less than 6 in assay [1]; less than 6 in assay [2]; greater than 5 in assay [3]; greater than 10 in assay [4]; less than 6 in assay [5]; greater than 5 in assay [6].

For the origin of these results see ChEMBL document CHEMBL4266040, “Structure-Based Engineering of Irreversible Inhibitors against Histone Lysine Demethylase KDM5A” (J Med Chem, 2018).
